A short description of this test: Inhibition of HSP70 by fluorescence polarization assay.

Data on one compound can be found in ChEMBL document CHEMBL1781881, “Adenosine-derived inhibitors of 78 kDa glucose regulated protein (Grp78) ATPase: insights into isoform selectivity” (J Med Chem, 2011).

Usually Ki stands for a measure of affinity in units of concentration, obtained from inhibition or displacement.

Structures are written as SMILES.

`CNc1nc2c(N)ncnc2n1[C@@H]1O[C@H](COCC(N)=O)[C@@H](O)[C@H]1O` showed a Ki of 1.85 µM.
